Experimental data taken from patent EP4831176A1, “BICYCLIC FUSED HETEROAROMATIC RING DERIVATIVE, AND PHARMACEUTICAL COMPOSITION AND USE THEREOF” (dated 2026).

Key:
[1] = In vivo pharmacokinetic study in mice (LC/MS/MS of plasma); conditions: male ICR mice; for Drug elimination half-life T1/2 / Drug exposure AUC0-inf / Maximum drug concentration Cmax / Time to peak concentration Tmax: plasma, study IV 2 mg/kg and PO 10 mg/kg, route of this parameter not given; for Oral bioavailability F: IV 2 mg/kg, PO 10 mg/kg
Source text: LC/MS/MS method was used to determine the drug concentrations in mouse plasma at different time points after intravenous injection and oral gavage administration of the compounds of the present application. The pharmacokinetic behavior of the compounds of the present application in mice was studied to evaluate their pharmacokinetic characteristics.
1. Experimental protocol: Test animals: Healthy adult male ICR mice, weighing 25-40 g, 6 mice. All mice had free access to food and water. Supplied by Beijing Vital River Laboratory Animal Technology Co., Ltd. Minimum of 3 days adaptation period, SPF area room, indoor temperature maintained at 20-26°C, indoor relative humidity maintained at 40-70%. Illuminated with fluorescent lamps, 12-hour light (08:00-20:00) and 12-hour dark, 2-5 mice per cage (same administration group). Unlimited access to feed (irradiated sterilized, Shaanxi Qinle Pharmaceutical Chemical Co., Ltd., China) and water (tap water purified by ultrapure water filtration system).
2. Animal experiment formulation: • 2.1. 10% DMSO / 40% PEG400 / 5% Tween 80 / 45% saline • 2.1.1 Vehicle formulation preparation: N/A • 2.1.2 Administration formulation preparation: Intravenous injection group: an appropriate amount of API powder was accurately weighed, added to 10% of the final volume of DMSO, and shaken and sonicated to ensure complete dissolution. After dissolution, 40% of the formulation volume of PEG400 and 5% of the formulation volume of Tween 80 were added, followed by vortexing or sonication. Finally, 45% of the formulation volume of saline was added to obtain a clear, transparent solution at a concentration of 0.5 mg/mL. • 2.2 10% HP-β-CD and 50 mM Citrate buffer in water (pH 4.0) • 2.2.1 Vehicle formulation preparation: • 50 mM Citrate buffer solution (pH 4.0): 1.92 g of anhydrous citric acid was weighed and added to 100 mL of purified water, stirred to dissolve, yielding a 100 mM citric acid solution. Separately, 2.94 g of sodium citrate was weighed and added to 100 mL of water, yielding a 100 mM sodium citrate solution. 33 mL of the 100 mM citric acid solution was taken, mixed with 17 mL of the 100 mM sodium citrate solution, mixed well, and diluted to 100 mL to obtain 50 mM citrate buffer at pH 4.0. • 10% HP-β-CD (Hydroxypropyl-β-cyclodextrin) and 50 mM Citrate buffer (pH 4.0) solution: 10 g of hydroxypropyl-β-cyclodextrin was accurately weighed and added to 100 mL of 50 mM Citrate buffer (pH 4.0) aqueous solution, and sonicated to ensure complete dissolution. • 2.2.2 Administration formulation preparation: Oral gavage group: an appropriate amount of API powder was accurately weighed, added to the final volume of 10% HP-β-CD and 50 mM Citrate in water (pH 4.0) solution, and shaken and sonicated to ensure complete dissolution. The mixture was then disrupted using a cell disruptor for 1 minute to obtain a clear, transparent or suspended solution at a concentration of 1 mg/mL. 3. Administration method: before administration, animals meeting the experimental requirements were selected, weighed, and marked. ICR mice were administered 2 mg/kg via tail vein injection and 10 mg/kg via oral gavage. 4. Sample Collection: before sampling, mice were restrained. Blood was collected from each dosed mouse via the submandibular vein at predetermined time points (IV administration: 0.083h, 0.25h, 0.5h, 1h, 2h, 4h, 7h, 24h, 30h, and 48h post-dose, totaling 10 time points; Oral gavage administration: 0.083h, 0.25h, 0.5h, 1h, 2h, 4h, 7h, 24h, 30h, and 48h post-dose, totaling 10 time points), approximately 80 µL of blood was collected each time. The blood was transferred to a 1.5 mL tube pre-filled with K2EDTA, and centrifuged (Eppendorf, Centrifuge 5804R) for 3 min (10000 rpm, 4°C) to separate plasma. The entire process was completed within 15 minutes after blood collection. All samples were stored in a -20°C freezer (Panasonic) until sample analysis. 5. […]

[2] = system: Pfeiffer cells; test: Proliferation inhibition of Pfeiffer tumor cells, Cell Titer-Glo; conditions: read-out: CTG IC50, 144 hours incubation

Row | SMILES | Drug elimination half-life T1/2 [1] [h] | Drug exposure AUC0-inf [1] [ng·h/mL] | Maximum drug concentration Cmax [1] [ng/mL] | Time to peak concentration Tmax [1] [h] | Oral bioavailability F [1] [%] | IC50 [2] [pM]
1 | Cn1nc(C2CCC(=O)NC2=O)c2ccc(N3CCC(CN4CCC(n5cc(-c6cnc(NCc7c(F)ccc8c7CCO8)n7cnc(F)c67)cn5)CC4)CC3)cc21 (stereo not drawn) | 4.8 | 10730 | 814 | 3.3 | 65.1 | 900
2 | O=C1CCC(N2Cc3cc(N4CCC(CN5CCC(n6cc(-c7cnc(NCc8c(F)ccc9c8CCO9)n8cnc(Cl)c78)cn6)CC5)CC4)ccc3C2=O)C(=O)N1 (stereo not drawn) | 10.88 | 2992 | 90.5 | 4.0 | 11.49 | 200
3 | Cn1nc(C2CCC(=O)NC2=O)c2ccc(N3CCC(CN4CCC(c5ccc(-c6cnc(NCc7c(F)ccc8c7CCO8)n7cnc(Cl)c67)cc5)CC4)CC3)cc21 (stereo not drawn) | 10.2 | 34773 | 1364 | 7.0 | 61.1 | 9000
4 | Cn1nc(C2CCC(=O)NC2=O)c2cc(F)c(N3CCC(CN4CCC(n5cc(-c6cnc(NCc7c(F)ccc8c7CCO8)n7cnc(Cl)c67)cn5)CC4)CC3)cc21 (stereo not drawn) | 4.4 | 17646 | 1150 | 7.0 | 65.1 | 500
5 | Cn1nc(C2CCC(=O)NC2=O)c2ccc(N3CC4(CC(CN5CCC(n6cc(-c7cnc(NCc8c(F)ccc9c8CCO9)n8cnc(Cl)c78)cn6)CC5)C4)C3)cc21 (stereo not drawn) | 5.6 | 20215 | 1360 | 5.0 | 35.8 | 1400
6 | Cn1nc(C2CCC(=O)NC2=O)c2ccc(N3CCC(CN4CCC(c5ccc(-c6cnc(NCc7c(F)ccc8c7CCO8)n7cnc(Cl)c67)nn5)CC4)CC3)cc21 (stereo not drawn) | 4.2 | 13186 | 1031 | 4.0 | 33.8 | 900
7 | Cn1nc(C2CCC(=O)NC2=O)c2ccc(N3CCC(CN4CCC(n5cc(-c6cnc(NCc7c(F)ccc8c7CCO8)n7cnc(Cl)c67)cn5)CC4)CC3)cc21 (stereo not drawn) | 5.1 | 16610 | 1131 | 4.0 | 82.9 | < 100
